This is an account of results in patent US8841083B2, “PSA capture agents, compositions, methods and preparation thereof” (California Institute of Technology, priority 2011, dated 2014).

The conditions of data set [1]: room temperature or −80° C., HPLC.

Consider “biotin-PEG5-cyclic(CVFAHNYDYLVC)-Tz5-Gllffk-Tz5-rrivk [PSA capture agent triligand]”, for which the “stability as a lyophilized powder” value in data set [1] is on record as “more than 6 weeks”. For the same substance, the “integrity after incubation with human serum” value (4-hour incubation, 37° C., 25% human serum) is on record as “still intact”. Moreover, under “24 hours, 37° C., 25% human serum”, the “fragmentation by HPLC analysis” value is reported as “no fragmentation was observed”. Besides, the “stable to proteolytic degradation in human serum” value (physiological temperature and buffer) is recorded as “more than 24 h”.
